# Measurements reported in patent US8507489B2.
# Amino acid sequences for entries named in this document (tags omitted). Residues count along the entry.
# UniProt P08581, 1078-1345 limits assumed: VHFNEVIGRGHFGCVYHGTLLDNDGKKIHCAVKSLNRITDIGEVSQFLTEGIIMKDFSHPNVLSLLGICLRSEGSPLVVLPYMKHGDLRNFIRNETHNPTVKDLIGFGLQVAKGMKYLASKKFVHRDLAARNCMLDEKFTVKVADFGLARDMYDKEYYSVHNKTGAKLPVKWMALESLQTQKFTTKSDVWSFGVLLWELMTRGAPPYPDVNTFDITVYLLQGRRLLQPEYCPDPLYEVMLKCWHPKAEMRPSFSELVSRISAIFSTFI
# Biological target: c-MET (Homo sapiens, UniProt P08581)
# Test: MET luminescence-based enzyme assay (Kinase-Glo)
# Assay type: biochemical
# Settings: read-out: Enzyme Assay c-MET IC50
smiles,measurement,value
Cn1cc(-c2ccc3nnc([S+]([O-])c4ccc5ncccc5c4)n3n2)cn1 (stereo not shown),IC50,1 to 10 µM
